Test results taken from PubChem BioAssay AID1476 (National Center for Advancing Translational Sciences (NCATS), 2009).
The list shows a part of the results, in another mix than the full data. Some results for these compounds are left out of this collection, so the calls shown say nothing about other tests. Records with an inconclusive call do not appear. Activity calls are given as the source filed them. Calls come from the whole dose curve; as a rule, active = well fitted inhibition curve with a large enough effect; inconclusive = small, poorly fitted or top-dose-only effect, or effect the other way; inactive = flat fitted curve, though single readings scatter.

By UniProt entry, the sequences of proteins in these tests, tags left out. Residues count along the entry.
UniProt P25779, 123-467 limits assumed: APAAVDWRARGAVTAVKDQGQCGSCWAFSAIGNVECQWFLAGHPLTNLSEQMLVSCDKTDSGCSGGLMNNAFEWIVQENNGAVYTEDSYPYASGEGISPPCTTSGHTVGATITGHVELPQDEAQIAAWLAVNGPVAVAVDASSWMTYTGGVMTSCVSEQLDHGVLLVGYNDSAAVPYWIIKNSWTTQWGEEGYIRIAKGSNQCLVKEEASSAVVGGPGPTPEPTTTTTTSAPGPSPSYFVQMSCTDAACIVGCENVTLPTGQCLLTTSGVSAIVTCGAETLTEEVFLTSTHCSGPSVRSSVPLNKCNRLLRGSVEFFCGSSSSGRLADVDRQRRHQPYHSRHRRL

Target: Cruzipain (Trypanosoma cruzi) (UniProt P25779)
Assay: qHTS Assay for Promiscuous and Specific Inhibitors of Cruzain (without detergent);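 note: plate controls were enzyme without inhibitor for no effect and buffer without enzyme for full effect; nearly all actives have a fitted effect of over 40% in size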
Details: purified cruzain, Z-FR-AMC fluorescence, no detergent

| SMILES | max response, negative = inhibition |
| --- | --- |
| CN(C)C1(CNC(=O)c2cccc(Cl)c2)CCCCC1 | inactive: 0.741% |
| CC(C)N1C(=O)CC2(CCN(CCOC(=O)C(O)(c3ccccc3)c3ccccc3)CC2)C1=O | inactive: -3.6% |
| CN(C)C1(CNC(=O)c2ccccc2F)CCCCC1 | inactive: 0.892% |
| CCOc1cccc(C(=O)NCC2(N(C)C)CCCCC2)c1 | inactive: -7.41% |
| CCN1CCCC(OC(=O)C2(O)c3ccccc3C=Cc3ccccc32)C1 (centres undefined) | inactive: 3.24% |
| CN(C)C1(CNC(=O)c2ccccc2[N+](=O)[O-])CCCCC1 | inactive: -15.4% |
| CN(C)C1CCCC1OC(=O)C(O)(c1ccccc1)c1ccccc1 (centres undefined) | inactive: 4.12% |
| CCCCOc1ccccc1C(=O)NCC1(N(C)C)CCCCC1 | inactive: -14.1% |
| COc1ccc(C(=O)NCC2(N(C)C)CCCCC2)cc1Cl | inactive: -2.03% |
| Cc1cccc(C(=O)NCC2(N(C)C)CCCCC2)c1 | inactive: -3.08% |
| COc1cc(C(=O)NCC2(N(C)C)CCCCC2)cc(OC)c1OC | inactive: 2.3% |
| CC(C)Oc1ccc(C(=O)NCC2(N(C)C)CCCCC2)cc1 | inactive: -7.82% |
| CN(C)c1cccc(C(=O)NCC2(N(C)C)CCCCC2)c1 | inactive: 2.28% |
| COc1cccc(C(=O)NCC2(N3CCOCC3)CCCCC2)c1 | inactive: 3.15% |
| CN1CCC[C@H](OC(=O)[C@](O)(c2ccccc2)C2CCCC2)C1 | inactive: 2.97% |
| O=C(OC1CN2CCC1CC2)C(CO)(c1ccccc1)c1ccccc1 (centres undefined) | inactive: -2.09% |
| CN1CC[C@H](OC(=O)[C@](O)(c2ccccc2)C2CCCC2)C1 | inactive: -0.993% |
| CC(C)COc1ccc(C(=O)NCC2(N(C)C)CCCCC2)cc1 | inactive: -14.4% |
| C=C(C)C#C[C@@](O)(C(=O)OC1CCN(C)CC1)c1ccccc1 | inactive: 1.06% |
